Measurements: patent US5750354A, “Lipoxin transport system and uses therefor” (priority 1994, dated 1998)

Columns and labels:
[1] = system: lipoxin transport system; assay: Irreversible inhibition of [3H]LXA4 influx after pretreatment of neutrophils with sulfhydryl-reactive agents; format: cell-based, human; conditions: 0.25 mM, pretreatment 30 min at 4° C., washed, influx at 37° C.; listed as NBD-CL
[2] = system: H+ +lactate- cotransporter; conditions: cited from earlier work

O=[N+]([O-])c1ccc(Cl)c2nonc12
% Inhibition of Transport (irreversible) [1]: ~ 20% | effect on H+ +lactate- cotransport / lactic acid fluxes [2]: completely blocked
